According to doi:10.1101/2021.07.15.452465:
pKd: −log10 of the molar value.

Tests used:
Test in all cases: SPR
Conditions in all cases: domain or fragment
[1] = molecular target: A. nidulans CCAAT-binding complex, conserved core domains of HapB, HapC and HapE (HapB^231-293, HapC^42-132, HapE^47-164) (Aspergillus nidulans)
[2] = molecular target: A. nidulans CCAAT-binding complex, conserved core domains of HapB, HapC and HapE (HapB^231-293, HapC^42-132, HapE^47-164) (Aspergillus nidulans); remark: listed apart in the source
[3] = molecular target: A. nidulans CCAAT-binding complex, conserved core domains of HapB, HapC and HapE (HapB^231-293, HapC^42-132, HapE^47-164) (Aspergillus nidulans); remark: listed apart in the source
[4] = molecular target: A. nidulans CCAAT-binding complex, conserved core domains of HapB, HapC and HapE (HapB^231-293, HapC^42-132, HapE^47-164) (Aspergillus nidulans); remark: listed apart in the source

With A. nidulans HapX^36-133 as the substance, how does the pKd [1] read?
Its pKd is 7.22.

And the pKd [2]?
The pKd was 7.64.

What does the source list for A. nidulans HapX^36-141?
pKd [1]: 7.77; pKd [3]: 8.65

A. nidulans HapX^27-141 was tested. Which pKd [1] did it give?
Its pKd is 7.72.

And the pKd [4]?
The pKd was 8.51.
